{"sequences": {"note": "Sequences of proteins named here, by UniProt entry; tags and fusion partners are left off.", "UniProt Q29010, whole entry": "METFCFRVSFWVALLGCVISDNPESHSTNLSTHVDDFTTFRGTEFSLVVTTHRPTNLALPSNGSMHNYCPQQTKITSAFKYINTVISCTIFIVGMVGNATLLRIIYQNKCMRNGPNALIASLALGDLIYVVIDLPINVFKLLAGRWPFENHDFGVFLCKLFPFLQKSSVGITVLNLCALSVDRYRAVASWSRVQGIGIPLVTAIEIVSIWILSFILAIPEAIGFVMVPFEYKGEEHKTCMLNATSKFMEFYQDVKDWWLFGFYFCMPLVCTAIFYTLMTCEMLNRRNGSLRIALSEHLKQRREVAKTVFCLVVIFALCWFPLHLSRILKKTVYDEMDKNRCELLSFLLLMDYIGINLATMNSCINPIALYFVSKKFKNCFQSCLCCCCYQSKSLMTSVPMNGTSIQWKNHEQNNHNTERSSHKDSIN"}, "source": "ChEMBL document CHEMBL1129335", "about": "“Synthesis and structure-activity relationships of 2-substituted D-tryptophan-containing peptidic endothelin receptor antagonists: importance of the C-2 substituent of the D-tryptophan residue for endothelin A and B receptor subtype selectivity” (J Med Chem, 1996)", "target": "Endothelin-1 receptor (Sus scrofa, UniProt Q29010)", "assay": "Binding affinity towards endothelin A receptor in porcine aortic smooth muscle membranes.", "summary_of_the_method": "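Competitive binding in porcine membranes: aortic smooth muscle for ETA and cerebellum for ETB, run by a previously reported method. Variation was generally within 10%.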", "data": [{"smiles": "CCCCC(NC(=O)[C@@H](Cc1c(C#N)[nH]c2ccccc12)NC(=O)C(NC(=O)N1[C@H](C)CCC[C@@H]1C)C(C)C)C(=O)O", "note": "(stereo partly specified)", "values": [{"measurement": "IC50", "result": 2000, "unit": "nM"}]}]}
